Assay results reported in patent US8623898B2, “Glycine transporter inhibiting substances” (Taisho Pharmaceutical Co., Ltd., priority 2009, dated 2014).

Amino acid sequences for entries named in this document (tags omitted).
UniProt P48067, whole entry: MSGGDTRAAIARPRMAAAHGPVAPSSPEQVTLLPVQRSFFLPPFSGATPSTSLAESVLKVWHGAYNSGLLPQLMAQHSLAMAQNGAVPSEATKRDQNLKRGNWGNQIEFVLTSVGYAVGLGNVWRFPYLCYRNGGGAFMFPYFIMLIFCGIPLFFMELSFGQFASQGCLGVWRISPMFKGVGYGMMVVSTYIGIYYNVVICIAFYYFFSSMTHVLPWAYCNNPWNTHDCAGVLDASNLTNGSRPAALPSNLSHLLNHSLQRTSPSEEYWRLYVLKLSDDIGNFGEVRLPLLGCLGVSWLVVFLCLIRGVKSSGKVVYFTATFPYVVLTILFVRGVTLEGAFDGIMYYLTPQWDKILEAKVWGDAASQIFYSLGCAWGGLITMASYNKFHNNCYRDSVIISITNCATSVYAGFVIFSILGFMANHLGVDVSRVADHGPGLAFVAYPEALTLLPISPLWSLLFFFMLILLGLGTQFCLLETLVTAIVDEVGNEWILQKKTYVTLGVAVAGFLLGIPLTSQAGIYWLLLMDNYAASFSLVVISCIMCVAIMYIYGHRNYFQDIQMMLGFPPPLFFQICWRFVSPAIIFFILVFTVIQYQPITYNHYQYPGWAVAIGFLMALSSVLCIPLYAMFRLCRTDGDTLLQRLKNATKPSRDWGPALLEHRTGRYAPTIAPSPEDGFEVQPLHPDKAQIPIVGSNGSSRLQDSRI
UniProt P08183, whole entry: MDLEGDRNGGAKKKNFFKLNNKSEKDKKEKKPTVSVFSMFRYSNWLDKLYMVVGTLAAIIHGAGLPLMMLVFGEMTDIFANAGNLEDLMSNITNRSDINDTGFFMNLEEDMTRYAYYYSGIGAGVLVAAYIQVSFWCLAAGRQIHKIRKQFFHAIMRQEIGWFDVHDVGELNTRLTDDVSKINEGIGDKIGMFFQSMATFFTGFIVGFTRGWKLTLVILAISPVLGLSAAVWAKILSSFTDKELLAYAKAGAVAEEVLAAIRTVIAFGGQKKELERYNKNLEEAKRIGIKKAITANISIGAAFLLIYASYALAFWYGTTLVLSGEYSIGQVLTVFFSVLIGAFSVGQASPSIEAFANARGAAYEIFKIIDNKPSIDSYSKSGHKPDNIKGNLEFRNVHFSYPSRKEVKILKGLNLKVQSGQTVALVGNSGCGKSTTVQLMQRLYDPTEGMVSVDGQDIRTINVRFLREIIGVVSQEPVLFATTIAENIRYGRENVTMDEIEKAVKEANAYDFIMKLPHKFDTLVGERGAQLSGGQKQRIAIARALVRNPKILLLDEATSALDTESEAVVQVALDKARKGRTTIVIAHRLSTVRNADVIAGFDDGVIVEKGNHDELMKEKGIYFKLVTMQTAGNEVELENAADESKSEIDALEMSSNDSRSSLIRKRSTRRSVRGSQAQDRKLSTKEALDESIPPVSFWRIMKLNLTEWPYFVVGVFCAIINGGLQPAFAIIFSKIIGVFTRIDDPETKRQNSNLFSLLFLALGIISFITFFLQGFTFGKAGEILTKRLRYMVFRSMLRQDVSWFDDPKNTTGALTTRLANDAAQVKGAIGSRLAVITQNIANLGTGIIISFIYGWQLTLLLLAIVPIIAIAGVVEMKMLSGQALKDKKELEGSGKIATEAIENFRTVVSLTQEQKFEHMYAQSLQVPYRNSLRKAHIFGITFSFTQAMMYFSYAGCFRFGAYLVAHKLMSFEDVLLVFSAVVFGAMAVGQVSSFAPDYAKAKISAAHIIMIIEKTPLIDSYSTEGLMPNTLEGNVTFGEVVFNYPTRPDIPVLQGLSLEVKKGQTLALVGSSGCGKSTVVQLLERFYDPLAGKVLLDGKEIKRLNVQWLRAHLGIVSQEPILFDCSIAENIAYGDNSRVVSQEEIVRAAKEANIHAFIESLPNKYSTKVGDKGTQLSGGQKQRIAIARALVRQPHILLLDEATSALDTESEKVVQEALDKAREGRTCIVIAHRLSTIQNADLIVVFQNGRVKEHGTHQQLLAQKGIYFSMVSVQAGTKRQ

Legend:
[1] = Membrane permeability experiment (PAMPA Evolution); conditions: artificial lipid GIT-0, pH 4.0, 5.0, 6.2 and 7.4, marker metoprolol
Procedure: In the development of pharmaceuticals, membrane permeability is an important factor to consider from the viewpoint of relationship with the bodily absorption of a medicament to be administered orally. Compounds having high membrane permeability are expected to feature satisfactory absorption by the intestinal tract (see Pharmaceutical Research (2002) Vol. 19, No. 7, 921-925.)
A membrane permeability test was conducted using PAMPA Evolution™ (pION INC.) in accordance with a modified version of the recommended protocol of pION INC. To be more specific, solutions of an assay compound (i.e., a DMSO solution of the compound as diluted by being added to system solutions that had been adjusted to prescribed pHs (4.0, 5.0, 6.2, and 7.4)) were prepared and added to the lower compartment (donor) of a sandwich plate having a lipid bilayer membrane formed of an artificial lipid (GIT-0). An acceptor sink buffer was added to the upper compartment (acceptor) and after the lapse of a prescribed period, the cumulative permeation of the compound was measured by performing UV spectroscopy on the solutions in the donor and acceptor, and the membrane permeability coefficient Pe (×10^−6 cm/sec) was calculated to assay the membrane permeability of the compound. […]

[2] = biological target: human type 1 glycine transporter (GlyT1) (Homo sapiens, UniProt P48067); assay: Glycine uptake inhibition experiment ([3H] glycine uptake in T98G cells); conditions: read-out: IC50 (glycine uptake inhibiting activity), [3H] glycine 250 nM, 15 min, room temperature
Procedure: A glycine uptake inhibition experiment was conducted in accordance with the method described in Neuron, 8, 927-935, 1992. Used in the experiment were T98G cells (glioma cells) developing a human type 1 glycine transporter (GlyT1). The T98G cells were seeded in a 96-well plate at a density of 2.0×10^4 cells per well and cultured overnight in a CO2 incubator. The test substance was first dissolved in a 100% DMSO solution and then dissolved in a 10 mM HEPES buffer solution (pH 7.4) supplemented with 150 mM sodium chloride, 1 mM calcium chloride, 5 mM potassium chloride, 1 mM magnesium chloride, 10 mM glucose, and 0.2% bovine serum albumin. After removing the cell culture medium, the test substance was subjected to a 10-min pretreatment. […] The glycine content in the cells was determined by measuring the radioactivity in the cell lysate with a liquid scintillation counter. With the amount of glycine uptake in the presence of 10 μM ALX5407 being referred to as the nonspecific uptake, the amount of specific uptake was calculated by subtracting the amount of nonspecific uptake from the total amount of uptake in the absence of 10 μM ALX5407. In addition, glycine uptake inhibiting activity (IC50) was calculated from an inhibition curve for the concentration of the test substance ranging from 10^−9 to 10^−5 M.

P-gp (Human MDR1) = P-gp (Human MDR1) (Homo sapiens, UniProt P08183); assay: Test for recognizability of P-gp substrate (LLC-GA5-COL 300 cells); conditions: 10 μM, criteria of Nature Reviews Drug Discovery (2010) 9, 215-236
Source text: In order that drugs acting on the central nervous system will develop their efficacy, their passage from the blood to the brain is generally important. While various efflux transporters are present at the blood-brain barrier to control this passage of drugs, P-glylcoprotein (P-gp) is a typical example and inhibits the passage to the brain of any drugs that serve as the substrate for P-gp. Therefore, in the development of pharmaceuticals, nonrecognizability of a candidate drug as the substrate for P-gp is the key to its passage to the brain.
A test for recognizability of P-gp substrate was performed in accordance with a modified version of the methods described in J. Pharmacol. Exp. Ther. (1992) Vol. 263, No. 2, 840-845 and J. Biol. Chem. (1992) Vol. 267, No. 34, 24248-24252. […] A solution of an assay compound (a DMSO solution of the compound as diluted with HBSS and adjusted to a final concentration of 10 μM) was added to the donor side of the LLC-GA5-COL 300 cells and a prescribed amount of HBSS was collected from the acceptor side at given time intervals and the concentration of the assay compound in the collected sample was measured by LC-MS/MS. […]

## O=C(c1cn2c(n1)CCCC2)N(Cc1cccc(OC(F)(F)F)c1)C1CCOCC1
[1]
  membrane permeability coefficient Pe compared with metoprolol: higher Pe values than the high permeability marker compound metoprolol

## Cn1cnc(C(=O)N(Cc2cccc(OC(F)(F)F)c2)C2CCOCC2)n1
[2]
  IC50: 11.6 nM
[1]
  membrane permeability coefficient Pe compared with metoprolol: higher Pe values than the high permeability marker compound metoprolol

## Cn1cnc(C(=O)N(Cc2cccc(OC(F)(F)F)c2)C2CCOCC2)c1
[2]
  IC50: 4.7 nM
P-gp (Human MDR1)
  recognizability as P-gp substrate (efflux ratio basal→apical / apical→basal): not recognizable as the substrate for P-gp
